Source: ChEMBL document CHEMBL3232716, “Tailoring cytotoxicity of antimicrobial peptidomimetics with high activity against multidrug-resistant Escherichia coli” (J Med Chem, 2014)

Legend:
[1] = Cytotoxicity against rat IEC-6 cells after 1 hr by MTS/PMS assay; format: cell-based; conditions: IEC-6, 1 h
Method in brief: (§1)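 Monolayers (passage 4–10) grown ~21–25 h to ~90% confluence. Seeding per well: HeLa 8000, HepG2 23 000, NIH 3T3 22 000, IEC-6 16 000, Caco-2 25 000. Cells washed with HBSS/10 mM Hepes pH 7.4 and exposed 1 h at 37 °C, 50 rpm, to compound 0–2000 μM in culture medium. MTS 240 μg/mL/PMS 2.4 μg/mL for 1.5–4 h, A492. Viability referenced to SDS and untreated controls; IC50 from one biological replicate in triplicate.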

[2] = Cytotoxicity against mouse NIH/3T3 cells after 1 hr by MTS/PMS assay; format: cell-based; conditions: NIH3T3, 1 h; method in brief: as §1

For CC[C@H](C)[C@H](NC(=O)CN)C(=O)NCC(=O)N[C@@H](C)C(=O)N[C@H](C(=O)N[C@@H](CC(C)C)C(=O)N[C@@H](CCCCN)C(=O)N[C@H](C(=O)N[C@@H](CC(C)C)C(=O)N[C@H](C(=O)N[C@H](C(=O)NCC(=O)N[C@@H](CC(C)C)C(=O)N1CCC[C@H]1C(=O)N[C@@H](C)C(=O)N[C@@H](CC(C)C)C(=O)N[C@H](C(=O)N[C@@H](CO)C(=O)N[C@@H](Cc1c[nH]c2ccccc12)C(=O)N[C@H](C(=O)N[C@@H](CCCCN)C(=O)N[C@@H](CCCNC(=N)N)C(=O)N[C@@H](CCCCN)C(=O)N[C@@H](CCCNC(=N)N)C(=O)N[C@@H](CCC(N)=O)C(=O)N[C@@H](CCC(N)=O)C(N)=O)[C@@H](C)CC)[C@@H](C)CC)[C@@H](C)O)[C@@H](C)O)C(C)C)C(C)C [MELITTIN], which IC50 [1] is on record?
Its IC50 is 2.2 µM.

What about the IC50 [2] of the same compound?
The IC50 was 6.4 µM.
